Test results reported in publication PMC4180945 (Tetrahedron, 2014).

Amino acid sequences for entries named in this document (tags omitted). Residues count along the entry.
UniProt P02769, 25-607: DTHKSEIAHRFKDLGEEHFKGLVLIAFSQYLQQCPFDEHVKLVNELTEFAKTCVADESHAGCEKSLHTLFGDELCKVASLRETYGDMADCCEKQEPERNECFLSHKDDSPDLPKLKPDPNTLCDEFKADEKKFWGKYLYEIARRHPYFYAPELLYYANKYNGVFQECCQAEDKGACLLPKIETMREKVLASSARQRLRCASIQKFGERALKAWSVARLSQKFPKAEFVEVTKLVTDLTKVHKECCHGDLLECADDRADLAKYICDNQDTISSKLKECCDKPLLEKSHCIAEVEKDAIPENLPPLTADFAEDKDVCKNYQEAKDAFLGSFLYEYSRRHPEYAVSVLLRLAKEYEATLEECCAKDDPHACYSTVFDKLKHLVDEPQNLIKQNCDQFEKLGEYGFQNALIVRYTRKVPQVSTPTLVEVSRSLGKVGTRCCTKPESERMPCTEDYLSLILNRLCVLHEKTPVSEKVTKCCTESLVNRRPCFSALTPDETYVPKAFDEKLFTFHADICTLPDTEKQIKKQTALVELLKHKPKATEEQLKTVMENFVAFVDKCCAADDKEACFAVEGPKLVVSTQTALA
UniProt P98170, 241-356 limits assumed: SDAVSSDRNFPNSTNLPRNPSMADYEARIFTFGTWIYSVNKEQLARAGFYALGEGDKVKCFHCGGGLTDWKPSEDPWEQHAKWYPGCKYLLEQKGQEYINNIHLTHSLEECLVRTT

Key:
[1] = molecular target: bovine serum albumin (BSA) (Bos taurus, UniProt P02769); test: Selectivity binding to arbitrarily selected protein: BSA
[2] = molecular target: T1, GST-SHD SH2 domain fusion protein (Homo sapiens, UniProt Q96IW2); test: Selectivity binding to arbitrarily selected protein: GST-SHD SH2; conditions: read-out: KD for GST-SHD SH2
T1 sequence (Q96IW2 240-335 limits assumed): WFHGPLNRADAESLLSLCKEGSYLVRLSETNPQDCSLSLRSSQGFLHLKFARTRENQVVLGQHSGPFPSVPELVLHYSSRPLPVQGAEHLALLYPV

[3] = molecular target: maltose-binding protein-XIAP BIR3 domain fusion (MBP-BIR3) (Homo sapiens, UniProt P98170); test: Selectivity binding to arbitrarily selected protein: MBP-BIR3; conditions: read-out: KD for MBP-BIR3

Measured: Kd

Trp-phe-Asp-Lys-phe-asn-His-Dap [Peptide 38]
23 to 57 µM: [1] | [2] | [3]
